The target of the experiment is Tyrosine-protein kinase SYK (Homo sapiens) (UniProt P43405). Briefly: Induction of SYK phosphorylation in human CD3-positive T cells at 3.2 to 10000 nM preincubated for 15 mins followed by anti-CD3/CD28 stimulation and measured after 1 hrs by Western blot analysis. It counts as cell-based. The conditions noted are these: CD3-positive T cell, dose 3.2-10000 nM, time 75.0 min. On the technique in general: A western blot detects proteins with antibodies after separation by electrophoresis.

From ChEMBL document CHEMBL6177960, “Rational design, optimization, and biological evaluation of novel pyrrolo-pyridone derivatives as potent and orally active Cbl-b inhibitors” (Eur J Med Chem, 2025) come the findings set out here.

Activity calls are given as the source filed them. The rule behind the calls is not given here.

Consider `C[C@H]1CCCN(Cc2cc3c(C(F)(F)F)cn(-c4cccc([C@]5(c6nncn6C)C[C@@H](C)C5)c4)c(=O)c3[nH]2)C1`, for which the outcome was inactive.
